The list shows a part of the results, in another mix than the full data. Active and inactive are the calls of the source.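 Rule for the calls: active = activation above a cutoff set at the mean over all compounds plus 3 SD (cut at about 18% in these data); inactive = the rest.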
Biological target: cAMP-dependent protein kinase catalytic subunit beta (Homo sapiens) + cAMP-dependent protein kinase type II-beta regulatory subunit (Homo sapiens) (UniProt P22694+P31323)
Assay: compounds dissociating PKAc from R2B subunit – biochemical, fluorescence polarization, Cy5-IP20, human, primary screen (AID 504700);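 note: higher means more holoenzyme dissociation and a rise in polarization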
Conditions: PKA-R2B holoenzyme dissociation, at 11.4 µM, active compounds read high, 0% DMSO only, 100% 113 µM cGMP, R2B truncated from residue 108, S112A mutant

Amino acid sequences for entries named in this document (tags omitted).
UniProt P31323, whole entry, looked up: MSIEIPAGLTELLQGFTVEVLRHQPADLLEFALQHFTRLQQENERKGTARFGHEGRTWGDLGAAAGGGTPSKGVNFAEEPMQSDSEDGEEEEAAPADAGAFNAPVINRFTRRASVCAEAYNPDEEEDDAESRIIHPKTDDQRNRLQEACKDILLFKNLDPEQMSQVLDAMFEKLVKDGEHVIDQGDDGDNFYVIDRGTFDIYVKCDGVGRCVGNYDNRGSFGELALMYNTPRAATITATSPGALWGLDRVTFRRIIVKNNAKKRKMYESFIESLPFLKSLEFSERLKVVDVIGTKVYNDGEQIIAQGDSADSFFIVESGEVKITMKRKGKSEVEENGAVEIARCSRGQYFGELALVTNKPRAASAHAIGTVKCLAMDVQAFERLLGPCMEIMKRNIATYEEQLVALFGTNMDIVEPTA

| Compound | activation |
| --- | --- |
| CCC(=O)N(c1ccccc1)C1(COC)CCN(CCc2cccs2)CC1 | inactive: -1.69% |
| CCC(=O)N(c1ccccc1)C1(COC)CCN(CCn2nnn(CC)c2=O)CC1 | inactive: 0.78% |

— PubChem BioAssay AID504700 (The Scripps Research Institute Molecular Screening Center, 2011)
